This assay deals with T1, apo-LanD (wild-type M. extorquens LanD, landiscernin, META1p1781, with C-terminal Tyr-Gly addition) (Methylobacterium (Methylorubrum) …).
T1 construct: Metal-free monomer; self-association (Kdimer) is written as m1 with m1; Disulfide between helices 1 and 3; also called WT; WT-LanD w/o signal peptide
The experiment in a line: ITC, 240 µM apo-Mex-LanM titrated into 30 µM apo-LanD, independent model; 30 mM MOPS, 100 mM KCl, pH 7.0, 25 C.

B1: apo-Mex-LanM (metal-free lanmodulin from Methylobacterium (Methylorubrum) extorquens) (other, UniProt C5B164 22-133, looked up)
chain: APTTTTKVDIAAFDPDKDGTIDLKEALAAGSAAFDKLDPDKDGTLDAKELKGRVSEADLKKLDPDNDGTLDKKEYLAAVEAQFKAANPDNDGTIDARELASPAGSALVNLIR
notes: also called apo-LanM; M. extorquens LanM
As to B1, the ΔH was 1.69 kcal/mol and the ΔS amounted to 30.6 cal/mol · K.

The values are drawn from patent US20260118347A1 (PENN STATE RESEARCH FOUNDATION, published 2026).
